Assay results: patent publication US9694016B2 (Novartis AG, priority 2013, dated 2017)

Protein sequences, listed by entry. Tags and fused reporters are not part of them.
UniProt P04049, whole entry Y340E/Y341E: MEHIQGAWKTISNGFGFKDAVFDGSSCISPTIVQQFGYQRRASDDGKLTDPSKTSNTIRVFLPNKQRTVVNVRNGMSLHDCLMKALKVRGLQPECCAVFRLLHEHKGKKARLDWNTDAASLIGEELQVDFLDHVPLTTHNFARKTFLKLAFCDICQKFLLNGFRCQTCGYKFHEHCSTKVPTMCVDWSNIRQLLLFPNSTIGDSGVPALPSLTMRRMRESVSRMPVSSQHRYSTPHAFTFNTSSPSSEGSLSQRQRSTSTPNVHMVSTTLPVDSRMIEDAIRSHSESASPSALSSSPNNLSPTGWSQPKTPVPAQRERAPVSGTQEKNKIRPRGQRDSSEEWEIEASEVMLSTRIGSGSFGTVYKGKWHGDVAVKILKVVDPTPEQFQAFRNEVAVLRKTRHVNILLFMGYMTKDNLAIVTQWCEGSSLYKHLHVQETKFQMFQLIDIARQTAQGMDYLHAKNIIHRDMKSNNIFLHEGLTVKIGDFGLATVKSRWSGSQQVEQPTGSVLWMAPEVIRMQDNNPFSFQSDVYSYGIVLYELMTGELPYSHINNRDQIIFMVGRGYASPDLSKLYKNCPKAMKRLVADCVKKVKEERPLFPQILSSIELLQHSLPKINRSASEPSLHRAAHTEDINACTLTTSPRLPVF

Target: C-Raf FL (full-length C-Raf protein, Y340E and Y341E activating mutations) (Homo sapiens (Human), UniProt P04049, Y340E/Y341E)
Type: biochemical
Conditions: AlphaScreen, 60 min pre-incubation, 1 hour reaction; read-out: c-Raf FL IC-50

Structure (SMILES)	IC50 [nM]
CCNc1nc(-c2cc(C(=O)Nc3cccc(C(F)F)c3)ccc2C)cc(N2CCOCC2)n1 [Example 733, N-(3-(difluoromethyl)phenyl)-3-(2-(ethylamino)-6-morpholinopyrimidin-4-yl)-4-methylbenzamide]	0.3
Cc1ccc(NC(=O)c2ccnc(C(C)(C)C#N)c2)cc1-c1cc(N2CCOCC2)nc(NCCO)n1 [Example 734, 2-(2-cyanopropan-2-yl)-N-(3-(2-((2-hydroxyethyl)amino)-6-morpholinopyrimidin-4-yl)-4-methylphenyl)isonicotinamide]	1.8
Cc1ncc(NC(=O)c2cccc(C(F)(F)F)c2)cc1-c1cc(N2CCOCC2)nc(NCCO)n1 [Example 735, N-(5-(2-((2-hydroxyethyl)amino)-6-morpholinopyrimidin-4-yl)-6-methylpyridin-3-yl)-3-(trifluoromethyl)benzamide]	0.5
Cc1ncc(NC(=O)c2ccnc(C(C)(C)C#N)c2)cc1-c1cc(N2CCOCC2)nc(NCCO)n1 [Example 736, 2-(2-cyanopropan-2-yl)-N-(5-(2-((2-hydroxyethyl)amino)-6-morpholinopyrimidin-4-yl)-6-methylpyridin-3-yl)isonicotinamide]	7.3
Cc1ccc(NC(=O)c2cnnc(C(C)(C)C#N)c2)cc1-c1cc(N2CCOCC2)nc(NCCO)n1 [Example 737, 6-(2-cyanopropan-2-yl)-N-(3-(2-((2-hydroxyethyl)amino)-6-morpholinopyrimidin-4-yl)-4-methylphenyl)pyridazine-4-carboxamide]	5.4
Cc1ncc(NC(=O)c2ccnc(C(C)(C)C#N)c2)cc1-c1cc(N2CCOCC2)nc(NC[C@H](C)O)n1 [Example 738, (S)-2-(2-cyanopropan-2-yl)-N-(5-(2-((2-hydroxypropyl)amino)-6-morpholinopyrimidin-4-yl)-6-methylpyridin-3-yl)isonicotinamide]	10.7
Cc1ccc(NC(=O)c2ccnc(C(C)(C)C#N)c2)cc1-c1cc(N2CCOCC2)nc(NC[C@H](C)O)n1 [Example 739, (S)-2-(2-cyanopropan-2-yl)-N-(3-(2-((2-hydroxypropyl)amino)-6-morpholinopyrimidin-4-yl)-4-methylphenyl)isonicotinamide]	1.4
Cc1ncc(NC(=O)c2cccc(C(F)(F)F)c2)cc1-c1cc(N2CCOCC2)nc(NC[C@H](C)O)n1 [Example 740, (S)—N-(5-(2-((2-hydroxypropyl)amino)-6-morpholinopyrimidin-4-yl)-6-methylpyridin-3-yl)-3-(trifluoromethyl)benzamide]	0.3
Cc1ccc(NC(=O)c2ccnc(C(C)(C)C#N)c2)cc1-c1cc(N2CCOCC2)nc(NC[C@@H](C)O)n1 [Example 741, (R)-2-(2-cyanopropan-2-yl)-N-(3-(2-((2-hydroxypropyl)amino)-6-morpholinopyrimidin-4-yl)-4-methylphenyl)isonicotinamide]	1.2
Cc1ncc(NC(=O)c2ccnc(C(C)(C)C#N)c2)cc1-c1cc(N2CCOCC2)nc(NC[C@@H](C)O)n1 [Example 742, (R)-2-(2-cyanopropan-2-yl)-N-(5-(2-((2-hydroxypropyl)amino)-6-morpholinopyrimidin-4-yl)-6-methylpyridin-3-yl)isonicotinamide]	4.6
Cc1ncc(NC(=O)c2ccnc(C(C)(C)C#N)c2)cc1-c1cc(N2CCOCC2)nc(N[C@@H](C)CO)n1 [Example 744, (S)-2-(2-cyanopropan-2-yl)-N-(5-(2-((1-hydroxypropan-2-yl)amino)-6-morpholinopyrimidin-4-yl)-6-methylpyridin-3-yl)isonicotinamide]	6.2
Cc1ncc(NC(=O)c2cccc(C(F)(F)F)c2)cc1-c1cc(N2CCOCC2)nc(N[C@@H](C)CO)n1 [Example 745, (S)—N-(5-(2-((1-hydroxypropan-2-yl)amino)-6-morpholinopyrimidin-4-yl)-6-methylpyridin-3-yl)-3-(trifluoromethyl)benzamide]	0.7
Cc1ccc(NC(=O)c2ccnc(C(C)(C)C#N)c2)cc1-c1cc(N2CCOCC2)nc(N[C@@H](C)CO)n1 [Example 746]	1.2
Cc1ncc(NC(=O)c2ccnc(C(C)(C)C#N)c2)cc1-c1cc(N2CCOCC2)nc(N[C@H](C)CO)n1 [Example 747, (R)-2-(2-cyanopropan-2-yl)-N-(5-(2-((1-hydroxypropan-2-yl)amino)-6-morpholinopyrimidin-4-yl)-6-methylpyridin-3-yl)isonicotinamide]	3
Cc1ncc(NC(=O)c2cccc(C(F)(F)F)c2)cc1-c1cc(N2CCOCC2)nc(N[C@H](C)CO)n1 [Example 748, (R)—N-(5-(2-((1-hydroxypropan-2-yl)amino)-6-morpholinopyrimidin-4-yl)-6-methylpyridin-3-yl)-3-(trifluoromethyl)benzamide]	0.4
Cc1ccc(NC(=O)c2ccnc(C(C)(C)C#N)c2)cc1-c1cc(N2CCOCC2)nc(N[C@H](C)CO)n1 [Example 749, (R)-2-(2-cyanopropan-2-yl)-N-(3-(2-((1-hydroxypropan-2-yl)amino)-6-morpholinopyrimidin-4-yl)-4-methylphenyl)isonicotinamide]	0.5

Structure (SMILES)	IC50 [nM]
Cc1ncc(NC(=O)c2ccnc(C(C)(C)C#N)c2)cc1-c1cc(N2CCOCC2)nc(NC(C)(C)CO)n1 [Example 750, 2-(2-cyanopropan-2-yl)-N-(5-(2-((1-hydroxy-2-methylpropan-2-yl)amino)-6-morpholinopyrimidin-4-yl)-6-methylpyridin-3-yl)isonicotinamide]	3.8
Cc1ccc(NC(=O)c2ccnc(C(C)(C)C#N)c2)cc1-c1cc(N2CCOCC2)nc(NC(C)(C)CO)n1 [Example 751, 2-(2-cyanopropan-2-yl)-N-(3-(2-((1-hydroxy-2-methylpropan-2-yl)amino)-6-morpholinopyrimidin-4-yl)-4-methylphenyl)isonicotinamide]	0.4
Cc1ncc(NC(=O)c2cccc(C(F)(F)F)c2)cc1-c1cc(N2CCOCC2)nc(NC(C)(C)CO)n1 [Example 752, N-(5-(2-((1-hydroxy-2-methylpropan-2-yl)amino)-6-morpholinopyrimidin-4-yl)-6-methylpyridin-3-yl)-3-(trifluoromethyl)benzamide]	0.4
Cc1ncc(NC(=O)c2ccnc(C(C)(C)C#N)c2)cc1-c1cc(N2CCOCC2)nc(NC2(CO)CCOCC2)n1 [Example 753, 2-(2-cyanopropan-2-yl)-N-(5-(2-((4-(hydroxymethyl)tetrahydro-2H-pyran-4-yl)amino)-6-morpholinopyrimidin-4-yl)-6-methylpyridin-3-yl)isonicotinamide]	6.7
Cc1ccc(NC(=O)c2ccnc(C(C)(C)C#N)c2)cc1-c1cc(N2CCOCC2)nc(NC2(CO)CCOCC2)n1 [Example 754, 2-(2-cyanopropan-2-yl)-N-(3-(2-((4-(hydroxymethyl)tetrahydro-2H-pyran-4-yl)amino)-6-morpholinopyrimidin-4-yl)-4-methylphenyl)isonicotinamide]	1
Cc1ccc(NC(=O)c2ccnc(C(C)(C)C#N)c2)cc1-c1cc(N2CCOCC2)nc(N(C)C)n1 [Example 755, 2-(2-cyanopropan-2-yl)-N-(3-(2-(dimethylamino)-6-morpholinopyrimidin-4-yl)-4-methylphenyl)isonicotinamide]	7.2
Cc1ccc(NC(=O)c2ccnc(C(C)(F)F)c2)cc1-c1cc(N2CCOCC2)nc(N(C)C)n1 [Example 756, 2-(1,1-difluoroethyl)-N-(3-(2-(dimethylamino)-6-morpholinopyrimidin-4-yl)-4-methylphenyl)isonicotinamide]	1.5
Cc1ccc(NC(=O)c2ccnc(C(F)(F)F)c2)cc1-c1cc(N2CCOCC2)nc(N(C)C)n1 [Example 758, N-(3-(2-(dimethylamino)-6-morpholinopyrimidin-4-yl)-4-methylphenyl)-2-(trifluoromethyl)isonicotinamide]	1.2
Cc1ccc(NC(=O)c2ccnc(S(C)(=O)=O)c2)cc1-c1cc(N2CCOCC2)nc(N(C)C)n1 [Example 759, N-(3-(2-(dimethylamino)-6-morpholinopyrimidin-4-yl)-4-methylphenyl)-2-(methylsulfonyl)isonicotinamide]	4.7
Cc1ncc(NC(=O)c2cccc(C(F)(F)F)c2)cc1-c1cc(N2CCOCC2)nc(N(C)C)n1 [Example 760, N-(5-(2-(dimethylamino)-6-morpholinopyrimidin-4-yl)-6-methylpyridin-3-yl)-3-(trifluoromethyl)benzamide]	3.3
CCOc1nc(-c2cc(NC(=O)c3ccnc(C(C)(F)F)c3)ccc2C)cc(N2CCOCC2)n1 [Example 761, 2-(1,1-difluoroethyl)-N-(3-(2-ethoxy-6-morpholinopyrimidin-4-yl)-4-methylphenyl)isonicotinamide]	0.2
CCOc1nc(-c2cc(NC(=O)c3ccnc(C(F)(F)F)c3)ccc2C)cc(N2CCOCC2)n1 [Example 762, N-(3-(2-ethoxy-6-morpholinopyrimidin-4-yl)-4-methylphenyl)-2-(trifluoromethyl)isonicotinamide]	0.2
CCOc1nc(-c2cc(NC(=O)c3ccnc(C(C)(C)C#N)c3)ccc2C)cc(N2CCOCC2)n1 [Example 764, 2-(2-cyanopropan-2-yl)-N-(3-(2-ethoxy-6-morpholinopyrimidin-4-yl)-4-methylphenyl)isonicotinamide]	0.8
Cc1ccc(NC(=O)c2cccc(C(F)(F)F)c2)cc1-c1cc(N2CCOCC2)nc(N2CC(O)C2)n1 [Example 765, N-(3-(2-(3-hydroxyazetidin-1-yl)-6-morpholinopyrimidin-4-yl)-4-methylphenyl)-3-(trifluoromethyl)benzamide]	0.2
Cc1ccc(C(=O)Nc2cccc(C(F)(F)F)c2)cc1-c1cc(N2CCOCC2)nc(N2CC(O)C2)n1 [Example 766, 3-(2-(3-hydroxyazetidin-1-yl)-6-morpholinopyrimidin-4-yl)-4-methyl-N-(3-(trifluoromethyl)phenyl)benzamide]	0.5
Cc1ncc(NC(=O)c2ccnc(C(C)(C)C#N)c2)cc1-c1cc(N2CCOCC2)nc(N2CC(O)C2)n1 [Example 767, 2-(2-cyanopropan-2-yl)-N-(5-(2-(3-hydroxyazetidin-1-yl)-6-morpholinopyrimidin-4-yl)-6-methylpyridin-3-yl)isonicotinamide]	12.1
